Results from IntAct's records for PubMed 25910212.

B1: Optineurin (Homo sapiens), Q96CV9 (parent)
chain: MSHQPLSCLTEKEDSPSESTGNGPPHLAHPNLDTFTPEELLQQMKELLTENHQLKEAMKLNNQAMKGRFEELSAWTEKQKEERQFFEIQSKEAKERLMALSHENEKLKEELGKLKGKSERSSEDPTDDSRLPRAEAEQEKDQLRTQVVRLQAEKADLLGIVSELQLKLNSSGSSEDSFVEIRMAEGEAEGSVKEIKHSPGPTRTVSTGTALSKYRSRSADGAKNYFEHEELTVSQLLLCLREGNQKVERLEVALKEAKERVSDFEKKTSNRSEIETQTEGSTEKENDEEKGPETVGSEVEALNLQVTSLFKELQEAHTKLSEAELMKKRLQEKCQALERKNSAIPSELNEKQELVYTNKKLELQVESMLSEIKMEQAKTEDEKSKLTVLQMTHNKLLQEHNNALKTIEELTRKESEKVDRAVLKELSEKLELAEKALASKQLQMDEMKQTIAKQEEDLETMTILRAQMEVYCSDFHAERAAREKIHEEKEQLALQLAVLLKENDAFEDGGRQSLMEMQSRHGARTSDSDQQAYLVQRGAEDRDWRQQRNIPIHSCPKCGEVLPDIDTLQIHVMDCII
partner: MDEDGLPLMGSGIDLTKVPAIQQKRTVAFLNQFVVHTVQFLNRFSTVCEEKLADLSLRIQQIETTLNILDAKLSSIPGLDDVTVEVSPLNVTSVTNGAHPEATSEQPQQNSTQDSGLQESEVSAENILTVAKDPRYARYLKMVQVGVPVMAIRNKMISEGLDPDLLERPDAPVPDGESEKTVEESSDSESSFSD
B2: Tumor necrosis factor receptor superfamily member 5 (Homo sapiens), P25942 (parent)
chain: MVRLPLQCVLWGCLLTAVHPEPPTACREKQYLINSQCCSLCQPGQKLVSDCTEFTETECLPCGESEFLDTWNRETHCHQHKYCDPNLGLRVQQKGTSETDTICTCEEGWHCTSEACESCVLHRSCSPGFGVKQIATGVSDTICEPCPVGFFSNVSSAFEKCHPWTSCETKDLVVQQAGTNKTDVVCGPQDRLRALVVIPIIFGILFAILLVLVFIKKVAKKPTNKAPHPKQEPQEINFPDDLPGSNTAAPVQETLHGCQPVTQEDGKESRISVQERQ
partner: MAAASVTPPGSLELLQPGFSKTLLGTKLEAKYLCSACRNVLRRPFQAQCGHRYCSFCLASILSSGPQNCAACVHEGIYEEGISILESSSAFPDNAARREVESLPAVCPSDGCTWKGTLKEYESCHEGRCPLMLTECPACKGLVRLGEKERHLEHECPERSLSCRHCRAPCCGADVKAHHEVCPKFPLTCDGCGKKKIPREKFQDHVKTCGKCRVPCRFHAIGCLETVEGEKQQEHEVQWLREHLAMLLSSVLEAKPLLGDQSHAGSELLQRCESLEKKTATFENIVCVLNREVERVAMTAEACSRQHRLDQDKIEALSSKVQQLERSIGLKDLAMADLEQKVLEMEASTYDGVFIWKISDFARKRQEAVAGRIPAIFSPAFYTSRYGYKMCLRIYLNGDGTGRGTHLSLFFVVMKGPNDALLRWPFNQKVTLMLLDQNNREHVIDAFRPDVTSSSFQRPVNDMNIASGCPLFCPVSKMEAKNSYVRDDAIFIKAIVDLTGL
B3: Optineurin (Homo sapiens), Q96CV9 (parent)
chain: B1 chain
B4: Optineurin (Homo sapiens), Q96CV9 (parent)
chain: B1 chain
partner: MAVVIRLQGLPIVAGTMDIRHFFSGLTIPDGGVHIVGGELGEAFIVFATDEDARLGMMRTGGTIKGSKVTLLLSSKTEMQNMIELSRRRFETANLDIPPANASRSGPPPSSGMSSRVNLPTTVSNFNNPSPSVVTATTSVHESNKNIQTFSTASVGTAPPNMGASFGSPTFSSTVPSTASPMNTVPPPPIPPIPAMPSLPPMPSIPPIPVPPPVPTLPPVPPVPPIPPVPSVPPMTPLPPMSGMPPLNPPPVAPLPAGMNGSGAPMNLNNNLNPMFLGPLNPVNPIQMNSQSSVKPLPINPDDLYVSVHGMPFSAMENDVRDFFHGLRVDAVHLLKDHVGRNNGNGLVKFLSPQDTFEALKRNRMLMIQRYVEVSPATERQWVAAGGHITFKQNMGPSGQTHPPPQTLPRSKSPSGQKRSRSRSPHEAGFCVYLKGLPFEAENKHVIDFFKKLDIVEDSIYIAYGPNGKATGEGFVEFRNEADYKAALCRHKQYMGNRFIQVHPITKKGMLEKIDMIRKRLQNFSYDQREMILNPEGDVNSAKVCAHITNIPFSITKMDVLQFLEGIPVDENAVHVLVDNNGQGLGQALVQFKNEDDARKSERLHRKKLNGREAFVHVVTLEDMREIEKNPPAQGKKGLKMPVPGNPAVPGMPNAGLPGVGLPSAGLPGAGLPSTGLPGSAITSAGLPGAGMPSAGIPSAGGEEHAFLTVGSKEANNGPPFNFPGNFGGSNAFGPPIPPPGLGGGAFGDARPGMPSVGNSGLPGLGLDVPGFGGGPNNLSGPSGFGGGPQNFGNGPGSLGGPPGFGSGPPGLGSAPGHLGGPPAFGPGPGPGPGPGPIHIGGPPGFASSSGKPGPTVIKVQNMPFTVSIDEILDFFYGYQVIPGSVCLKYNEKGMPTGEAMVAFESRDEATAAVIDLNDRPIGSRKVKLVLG
B5: Ferritin light chain (Homo sapiens), P02792 (parent)
chain: MSSQIRQNYSTDVEAAVNSLVNLYLQASYTYLSLGFYFDRDDVALEGVSHFFRELAEEKREGYERLLKMQNQRGGRALFQDIKKPAEDEWGKTPDAMKAAMALEKKLNQALLDLHALGSARTDPHLCDFLETHFLDEEVKLIKKMGDHLTNLHRLGGPEAGLGEYLFERLTLKHD
B6: Optineurin (Homo sapiens), Q96CV9 (parent)
chain: B1 chain
partner: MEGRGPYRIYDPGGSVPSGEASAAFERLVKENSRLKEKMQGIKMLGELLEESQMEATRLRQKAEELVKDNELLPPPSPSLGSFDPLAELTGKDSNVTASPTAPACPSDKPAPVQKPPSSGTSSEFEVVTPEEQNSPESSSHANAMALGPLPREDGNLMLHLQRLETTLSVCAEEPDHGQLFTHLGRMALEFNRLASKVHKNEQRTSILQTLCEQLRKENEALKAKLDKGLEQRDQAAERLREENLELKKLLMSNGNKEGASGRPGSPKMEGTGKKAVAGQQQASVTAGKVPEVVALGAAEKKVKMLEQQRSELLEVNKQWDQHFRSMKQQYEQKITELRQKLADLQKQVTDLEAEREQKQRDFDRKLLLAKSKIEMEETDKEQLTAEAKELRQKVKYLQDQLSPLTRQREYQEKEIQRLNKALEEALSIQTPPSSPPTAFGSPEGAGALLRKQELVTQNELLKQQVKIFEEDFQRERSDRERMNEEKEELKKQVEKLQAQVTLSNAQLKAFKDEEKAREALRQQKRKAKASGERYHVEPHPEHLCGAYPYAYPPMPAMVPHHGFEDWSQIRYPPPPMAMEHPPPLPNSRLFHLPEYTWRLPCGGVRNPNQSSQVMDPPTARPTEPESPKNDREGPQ

Variants of: B1
Details: with wasc3_human WASHC3, Q9Y3C0

Row | effect of a mutation on the interaction | Variant
1 | with no effect | T202R
2 | with no effect | K435R
3 | with no effect | A336G
4 | with no effect | E50K

Variants of: B2
Details: with traf2_human TRAF2, Q12933

Row | effect of a mutation on the interaction | Variant
5 | with no effect | P227A

Variants of: B3
Details: with cdc23_human CDC23

Row | effect of a mutation on the interaction | Variant
6 | with no effect | E50K
7 | with no effect | K435R
8 | disrupting interaction strength | T202R
9 | disrupting interaction strength | A336G

Variants of: B3
Details: with cdc23_human CDC23
Remark: another data set of the same source

Row | effect of a mutation on the interaction | Variant
10 | with no effect | T202R
11 | with no effect | A336G

Variants of: B4
Details: with rbm12_human RBM12, Q9NTZ6

Row | effect of a mutation on the interaction | Variant
12 | with no effect | E50K
13 | with no effect | A336G
14 | with no effect | K435R
15 | with no effect | T202R

Variants of: B5
Details: with frih_human FTH1, P02794

Row | effect of a mutation on the interaction | Variant
16 | disrupting interaction strength | H133P
17 | disrupting interaction strength | A96T

Variants of: B6
Details: with tnip1_human TNIP1, Q15025

Row | effect of a mutation on the interaction | Variant
18 | with no effect | A336G
19 | with no effect | E50K
20 | with no effect | K435R
21 | with no effect | T202R

Variants of: B6
Details: with tnip1_human TNIP1, Q15025
Remark: another data set of the same source

Row | effect of a mutation on the interaction | Variant
22 | causing an interaction | E50K
